From ChEMBL document CHEMBL4270635, “HDAC3 is a potential validated target for cancer: An overview on the benzamide-based selective HDAC3 inhibitors through comparative SAR/QSAR/QAAR approaches” (Eur J Med Chem, 2018)

Legend:
Homo sapiens [1] = species on record: Homo sapiens; experiment: Selectivity ratio of IC50 for HDAC1 (unknown origin) to IC50 for HDAC3 (unknown origin)
Homo sapiens [2] = species on record: Homo sapiens; experiment: Selectivity ratio of IC50 for HDAC2 (unknown origin) to IC50 for HDAC3 (unknown origin)

Ratio IC50 (Homo sapiens [1]): 7
Ratio IC50 (Homo sapiens [2]): 7
SMILES: Nc1ccccc1NC(=O)c1cnccn1
